# Source: US8557859B2, “Immunomodulatory compositions” (Summit (Wales) Limited, priority 2003, dated 2013)
# Tested on: β-D-galactosidase
# Assay: Glycosidase inhibition, β-D-galactosidase
# Type: biochemical, Bovine liver
# Conditions: 1 mg/ml; second galactosidase line
# Protocol: All enzymes were purchased from Sigma, as were the appropriate p-nitrophenyl substrates. Assays were carried out in microtitre plates. Enzymes were assayed in 0.1 M citric acid/0.2M di-sodium hydrogen phosphate (McIlvaine) buffers at the optimum pH for the enzyme. All assays were carried out at 20° C. For screening assays the incubation assay consisted of 10 μl of enzyme solution, 10 μl of inhibitor solution (made up in water) and 50 μl of the appropriate 5 mM p-nitrophenyl substrate (3.57 mM final conc.) made up in McIlvaine buffer at the optimum pH for the enzyme.
# The reactions were stopped with 0.4M glycine (pH 10.4) during the exponential phase of the reaction, which was determined at the beginning of the assay using blanks with water, which were incubated for a range of time periods to measure the reaction rate using 5 mM substrate solution. Endpoint absorbances were read at 405 nm with a Biorad microtitre plate reader (Benchmark). Water was substituted for the inhibitors in the blanks.
row,Compound,% inhibition galactosidase [%]
1,"OC[C@@H]1[C@@H](O)[C@H](O)[C@H]2[C@@H](O)[C@@H](O)CN21 [7-epi-casuarine (11), 7-epi-casuarine]",35
2,"OC[C@H]1[C@@H](O)[C@H](O)[C@H]2[C@@H](O)[C@@H](O)CN21 [3,7-diepi-casuarine (10), (1R,2R,3S,6S,7R,7aR)-3-(Hydroxymethyl)-1,2,6,7-tetrahydroxypyrrolizidine]",24
3,"OC[C@H]1[C@@H](O)[C@H](O)[C@@H]2[C@@H](O)[C@@H](O)CN21 [Compound 22, 3,7,7a-triepi-casuarine]",52
